Tested on: Human ovarian cancer cell line SKOV-3
Test: In vitro cytotoxicity, SKOV-3 cell viability (PrestoBlue)
Details: SKOV-3, applied to the cell culture medium

Substance | cytotoxicity compared with 1 (MMAF)
N-(6-O-propargyl-D-galactosyl)-MMAF [Compound 3] | equally or only slightly less cytotoxic
N-(6-azido-6-deoxy-D-galactosyl)-MMAF [Compound 4] | equally or only slightly less cytotoxic
